In PubChem BioAssay (EPA / NIEHS):
This is a selection; strong and weak results do not stand in their true shares. The source made the active and inactive calls. The calls were made as follows: active = hit-call score of the fitted dose curve at least 0.9, where 1 is the maximum; inactive = score below 0.9.

By UniProt entry, the sequences of proteins in these tests, tags left out.
UniProt P17676, whole entry: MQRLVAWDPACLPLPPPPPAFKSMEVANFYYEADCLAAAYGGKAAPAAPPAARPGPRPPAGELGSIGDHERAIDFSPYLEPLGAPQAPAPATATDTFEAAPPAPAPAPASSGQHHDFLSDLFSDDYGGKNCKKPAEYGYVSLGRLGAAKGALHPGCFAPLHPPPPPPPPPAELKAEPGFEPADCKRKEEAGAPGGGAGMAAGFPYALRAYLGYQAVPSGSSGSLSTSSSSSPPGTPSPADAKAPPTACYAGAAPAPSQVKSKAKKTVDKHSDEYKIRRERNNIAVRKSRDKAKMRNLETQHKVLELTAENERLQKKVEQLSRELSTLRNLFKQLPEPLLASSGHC
UniProt P35869, whole entry: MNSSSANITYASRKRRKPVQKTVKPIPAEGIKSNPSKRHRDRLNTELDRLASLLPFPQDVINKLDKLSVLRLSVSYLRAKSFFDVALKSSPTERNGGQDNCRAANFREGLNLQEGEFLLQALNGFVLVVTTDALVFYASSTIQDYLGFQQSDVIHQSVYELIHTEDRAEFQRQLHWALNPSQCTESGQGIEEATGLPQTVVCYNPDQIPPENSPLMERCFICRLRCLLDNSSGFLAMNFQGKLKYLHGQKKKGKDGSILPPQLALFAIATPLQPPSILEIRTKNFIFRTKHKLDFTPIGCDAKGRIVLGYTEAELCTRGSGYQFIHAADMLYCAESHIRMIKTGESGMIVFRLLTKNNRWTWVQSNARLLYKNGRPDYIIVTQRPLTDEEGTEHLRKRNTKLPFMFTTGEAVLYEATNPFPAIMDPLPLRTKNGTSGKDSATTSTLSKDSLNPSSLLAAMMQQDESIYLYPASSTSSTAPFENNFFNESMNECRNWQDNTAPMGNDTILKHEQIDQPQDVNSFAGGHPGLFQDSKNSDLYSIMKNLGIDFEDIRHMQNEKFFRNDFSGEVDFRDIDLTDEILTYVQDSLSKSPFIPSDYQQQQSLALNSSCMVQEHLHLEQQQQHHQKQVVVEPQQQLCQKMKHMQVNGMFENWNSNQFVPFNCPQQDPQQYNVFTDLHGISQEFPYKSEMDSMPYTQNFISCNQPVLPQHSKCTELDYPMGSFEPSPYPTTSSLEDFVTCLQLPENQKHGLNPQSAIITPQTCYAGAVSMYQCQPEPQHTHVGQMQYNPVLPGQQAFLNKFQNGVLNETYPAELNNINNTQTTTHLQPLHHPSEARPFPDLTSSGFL
UniProt Q01094, whole entry: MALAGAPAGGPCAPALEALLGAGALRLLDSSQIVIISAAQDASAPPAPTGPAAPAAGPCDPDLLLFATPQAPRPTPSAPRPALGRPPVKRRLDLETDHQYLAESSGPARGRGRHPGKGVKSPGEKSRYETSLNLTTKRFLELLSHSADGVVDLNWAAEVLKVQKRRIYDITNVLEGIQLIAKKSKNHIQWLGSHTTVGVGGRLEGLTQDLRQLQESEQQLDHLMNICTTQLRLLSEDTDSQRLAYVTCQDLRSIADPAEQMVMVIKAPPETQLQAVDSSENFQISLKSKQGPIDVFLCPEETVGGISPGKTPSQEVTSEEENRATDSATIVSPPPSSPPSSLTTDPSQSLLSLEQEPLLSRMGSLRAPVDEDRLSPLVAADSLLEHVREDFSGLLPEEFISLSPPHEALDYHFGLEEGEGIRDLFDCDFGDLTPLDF
UniProt P10276, whole entry: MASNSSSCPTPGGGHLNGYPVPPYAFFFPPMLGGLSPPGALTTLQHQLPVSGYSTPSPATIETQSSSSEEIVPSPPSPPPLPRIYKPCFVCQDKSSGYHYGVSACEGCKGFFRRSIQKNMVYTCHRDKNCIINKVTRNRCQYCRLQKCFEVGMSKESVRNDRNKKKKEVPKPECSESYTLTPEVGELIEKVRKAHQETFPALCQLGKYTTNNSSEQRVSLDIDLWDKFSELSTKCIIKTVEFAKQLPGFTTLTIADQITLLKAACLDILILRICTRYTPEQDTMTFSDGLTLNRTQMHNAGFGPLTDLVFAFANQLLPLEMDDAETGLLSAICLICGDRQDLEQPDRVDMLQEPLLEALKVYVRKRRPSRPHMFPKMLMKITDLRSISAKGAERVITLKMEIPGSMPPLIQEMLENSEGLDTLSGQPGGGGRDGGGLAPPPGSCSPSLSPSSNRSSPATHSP

Assays:
[1] = ATG_CRE_CIS: Attagene CIS-FACTORIAL HepG2 Assay for human cAMP Responsive Element (CRE) binding protein 3 (AID 2282926); settings: HepG2 CRE cis-reporter, Attagene multiplexed mRNA; actives raise or lower the signal
Outline: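 HepG2 cells transiently transfected with cis-element-driven multiple reporter transcription units; CRE reporter mRNA measured 24 h after dosing by RT-PCR, 6-FAM labelling, HpaI digestion and capillary electrophoresis. Bidirectional fit versus DMSO baseline.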

[2] = biological target: CCAAT/enhancer-binding protein beta (Homo sapiens) (UniProt P17676); experiment: ATG_C_EBP_CIS: Attagene CIS-FACTORIAL HepG2 Assay for human CCAAT/Enhancer Binding Protein (C/EBP) beta (AID 2282927); settings: HepG2 Attagene cis-factorial transcription factor reporter; actives raise or lower the signal
Outline: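 Endogenous transcription factor activity in human liver HepG2 cells is inferred from induction of a CEBPB-linked reporter mRNA. Exposure lasts 24 h; activity is fitted in both directions relative to DMSO.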

[3] = ATG_CMV_CIS: Attagene CIS-FACTORIAL HepG2 Assay for human CMV (Internal Marker) (AID 2282928); settings: HepG2 CMV promoter reporter, transcription factor profiling; actives raise or lower the signal;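 also: endpoint acts as a background internal control marker rather than a target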
Outline: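 After transient transfection of HepG2 with reporter transcription units driven by cis-regulatory promoters, cells receive test chemical for 24 h. Labeled reporter amplicons, digested with HpaI, are sized and quantified by capillary electrophoresis against DMSO.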

[4] = ATG_DR4_LXR_CIS: Attagene CIS-FACTORIAL HepG2 Assay for human Liver X Receptor (LXR), DR4 submotif (AID 2282929); settings: HepG2 Attagene DR4 cis-reporter, mRNA transcription; actives raise or lower the signal
Outline: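 Cells were transfected with multiple reporter transcription units, exposed to chemicals for 24 hours, then lysed for RNA. Reporter mRNA induction was measured by RT-PCR with capillary electrophoresis detection and fitted in both directions relative to DMSO.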

[5] = biological target: Aryl hydrocarbon receptor (Homo sapiens) (UniProt P35869); experiment: ATG_Ahr_CIS: Attagene CIS-FACTORIAL HepG2 Assay for human Aryl Hydrocarbon Receptor (Ahr) (AID 2282930); settings: HepG2 AhR cis-factorial reporter transcription; actives raise or lower the signal
Outline: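 Transient MRTU transfection of HepG2 → 24 h compound exposure → total RNA, oligo(dT) RT → PCR, 6-FAM extension, HpaI cut → CE fluorescence. DMSO = baseline; bidirectional curve fit.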

[6] = ATG_AP_1_CIS: Attagene CIS-FACTORIAL HepG2 Assay for human Activator Protein 1 (AP-1) (AID 2282931); settings: HepG2 Attagene cis-factorial AP-1 reporter mRNA; actives raise or lower the signal
Outline: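 Endogenous transcription-factor activity in human HepG2 liver cells is read through a cis-promoter reporter transcript, sampled 24 h after dosing. Detection uses RT-PCR with capillary electrophoresis; values come from bidirectional fitting relative to DMSO.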

[7] = ATG_AP_2_CIS: Attagene CIS-FACTORIAL HepG2 Assay for human Activator Protein 2 (AP-2) (AID 2282932); settings: HepG2 AP-2 cis-reporter, Attagene transcription factor profiling; actives raise or lower the signal
Outline: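 HepG2, transient MRTU transfection, cis-regulated reporters; 24 h compound exposure; RNA isolated, RT-PCR, 6-FAM labelling, HpaI digest, CE fluorescence. DMSO = negative control/baseline, bidirectional fit.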

[8] = ATG_BRE_CIS: Attagene CIS-FACTORIAL HepG2 Assay for human Bone Morphogenetic Protein (BMP) Response Element (BRE) (AID 2282933); settings: HepG2 BMP response element reporter, Attagene transcription factor profiling; actives raise or lower the signal
Outline: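 Transient MRTU transfection of human HepG2 liver cells; 24 h compound treatment; total RNA isolated, reverse-transcribed, PCR-amplified, 6-FAM labelled, HpaI-cut, capillary electrophoresis. DMSO = negative control/baseline, bidirectional fit.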

[9] = biological target: Transcription factor E2F1 (Homo sapiens) (UniProt Q01094); experiment: ATG_E2F_CIS: Attagene CIS-FACTORIAL HepG2 Assay for human E2F Transcription Factor 1 (AID 2282935); settings: HepG2 Attagene cis-reporter, E2F reporter RNA transcripts; actives raise or lower the signal
Outline: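 Cis-element reporter mRNA induction in transiently transfected HepG2, 24 h exposure. Activity fitted in both directions relative to DMSO negative control.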

[10] = biological target: Retinoic acid receptor alpha (Homo sapiens) (UniProt P10276); experiment: ATG_DR5_RAR_CIS: Attagene CIS-FACTORIAL HepG2 Assay for human Retinoic Acid Receptor Alpha (RARE), DR5 submotif (AID 2282934); settings: HepG2 Attagene cis-factorial RARE DR5 reporter, mRNA; actives raise or lower the signal;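 as to AC50: reporter responds to endogenous RAR alpha beta and gamma in HepG2 not RARA alone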
[11] = APR_HepG2_P-H2AX_72hr: Apredica 72-hour HepG2 Assay for H2AX Phosphorylation (AID 2282916); settings: imaging, actives raise or lower the signal;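 also: phospho-histone H2A.x immunostain intensity per cell marking DNA damage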
Outline: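 HepG2; cpd 0.39–200 uM ×10 conc, duplicates; 0.5% DMSO; 72 hr. Fix 3.7% formaldehyde 30 min RT, 0.5% Triton X-100 10 min. Anti-phospho-H2A.x 1:200 + Hoechst 2 ug/mL, 60 min RT; ArrayScan imaging.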

[12] = APR_HepG2_MitoMembPot_72hr: Apredica 72-hour HepG2 Assay for Mitochondrial Membrane Potential (AID 2282917); settings: imaging, actives raise or lower the signal
Outline: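 Membrane potential read by MitoTracker Red CMXRos (250 nM, 30 min, pre-fixation) fluorescence imaging of HepG2 after 72 hr exposure. Ten concentrations, 0.39–200 uM, duplicate wells, 0.5% DMSO; fitted in both directions against DMSO baseline.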

[13] = APR_HepG2_MitoticArrest_72hr: Apredica 72-hour HepG2 Assay for Mitotic Arrest (AID 2282918); settings: high-content imaging, actives raise or lower the signal
Outline: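 HepG2 cells treated 72 h at 0.39–200 uM, 0.5% DMSO final; formaldehyde-fixed, stained with Hoechst 33342 and phospho-histone H3 antibody, imaged by high-content fluorescence; bidirectional fit versus DMSO.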

[14] = APR_HepG2_MicrotubuleCSK_72hr: Apredica 72-hour HepG2 Assay for Microtubule CSK Stabilty (AID 2282919); settings: HepG2 microtubule cytoskeleton, high-content imaging, actives raise or lower the signal
Outline: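 Read-out is tubulin fluorescence intensity from high-content imaging of HepG2 cells, with nuclei identified by Hoechst 33342. Treatment lasts 72 h at 0.39–200 uM, and curves are fitted bidirectionally against the DMSO negative control.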

[15] = APR_HepG2_P-H2AX_24hr: Apredica 24-hour HepG2 Assay for H2AX Phosphorylation (AID 2282920); settings: high-content imaging, actives raise or lower the signal
Outline: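 HepG2 cells dosed 24 h at 0.39–200 uM (10 points, duplicate, 0.5% DMSO final). Formaldehyde-fixed and permeabilized, then immunostained for phospho-H2A.x with Hoechst. Fluorescence quantified by high-content imaging, fitted bidirectionally versus DMSO.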

[16] = APR_HepG2_StressKinase_72hr: Apredica 72-hour HepG2 Assay for Stress Kinase (AID 2282921); settings: HepG2 stress kinase (phospho-c-Jun) imaging, actives raise or lower the signal
Outline: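 Dose 0.39–200 uM (10 pts, duplicate), 0.5% DMSO; 72 h; fix 3.7% formaldehyde 30 min RT; Triton permeabilize; anti-phospho-c-Jun/Cy3 + Hoechst 60 min RT; image 20x; fit gain/loss vs DMSO.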

[17] = APR_HepG2_StressKinase_24hr: Apredica 24-hour HepG2 Assay for Stress Kinase (AID 2282922); settings: HepG2 stress kinase (phospho-c-Jun) imaging, actives raise or lower the signal
Outline: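 HepG2, 24 hr dosing, 0.39–200 uM in duplicate, 0.5% DMSO; formaldehyde fix (3.7%), 0.5% Triton X-100; anti-phospho-c-Jun + Cy3 secondary, Hoechst counterstain; ArrayScan imaging; bidirectional curve fit vs DMSO baseline.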

[18] = APR_HepG2_p53Act_72hr: Apredica 72-hour HepG2 Assay for p53 Activation (AID 2282923); settings: high-content imaging, actives raise or lower the signal;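 also: average cellular p53 protein immunofluorescence intensity in HepG2 cells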
Outline: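 10-pt conc. 0.39–200 uM, duplicate, 0.5% DMSO; 72 hr exposure; 3.7% formaldehyde fix, 0.5% Triton perm; sheep anti-p53/Cy5 + Hoechst; ArrayScan 20x, 6 images/well; gain/loss fit vs DMSO.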

[19] = APR_HepG2_MitoMass_72hr: Apredica 72-hour HepG2 Assay for Mitochondrial Mass (AID 2282924); settings: high-content imaging, actives raise or lower the signal;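 also: MitoTracker Red CMXRos stain intensity per cell imaged as mitochondrial mass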
Outline: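 HepG2, 72 hr cmpd, 10 conc 0.39–200 uM in dup, DMSO 0.5% v/v. MitoTracker Red CMXRos 250 nM 30 min pre-fix; formaldehyde 3.7% fix 30 min RT. HCS imaging, gain/loss fit vs DMSO.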

[20] = APR_HepG2_NuclearSize_72hr: Apredica 72-hour HepG2 Assay for Nuclear Size (AID 2282925); settings: high-content imaging, actives raise or lower the signal
Outline: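 HepG2; cpd 0.39–200 uM, 10 conc, duplicate; 72 h; DMSO 0.5% v/v; fix 3.7% formaldehyde 30 min RT; Triton permeabilization; Hoechst 2 ug/mL; HCS imaging 20x; nuclear diameter; gain/loss fit vs DMSO.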

Measured: AC50

O=[N+]([O-])OCC(CO[N+](=O)[O-])(CO[N+](=O)[O-])CO[N+](=O)[O-]
inactive: [1] | [2] | [3] | [4] | [5] | [6] | [7] | [8] | [9]

CC(C)N(CCO)C(C)C
inactive: [1] | [2] | [3] | [4] | [5] | [6] | [7] | [8] | [9]

N#CBr
inactive: [1] | [2] | [3] | [4] | [5] | [6] | [7] | [8] | [10] | [9]

Cc1ccc([N+](=O)[O-])c([N+](=O)[O-])c1
inactive: [1] | [2] | [4] | [5] | [7] | [8] | [10] | [9]
active: [6] 26.9 µM

Cc1c([N+](=O)[O-])cccc1[N+](=O)[O-]
inactive: [11] | [12] | [13] | [14] | [15] | [16] | [17] | [18] | [19] | [20] | [1] | [2] | [3] | [4] | [5] | [6] | [7] | [8] | [10] | [9]

Cc1cccc([N+](=O)[O-])c1[N+](=O)[O-]
active: [11] 76.3 µM | [13] 68.2 µM | [18] 68.4 µM | [19] 122 µM | [1] 107 µM | [3] 46.2 µM | [4] 135 µM | [8] 44.4 µM | [10] 20 µM
inactive: [12] | [14] | [15] | [16] | [17] | [20] | [2] | [5] | [7] | [9]

O=[N+]([O-])c1cccc([N+](=O)[O-])c1
inactive: [11] | [12] | [13] | [14] | [15] | [16] | [17] | [18] | [19] | [20] | [1] | [2] | [3] | [4] | [6] | [7] | [8] | [9]

CC(C)OP(C)(=O)OC(C)C
inactive: [11] | [12] | [13] | [14] | [15] | [16] | [17] | [18] | [19] | [20] | [1] | [2] | [3] | [4] | [6] | [7] | [8] | [10] | [9]
active: [5] 79.1 µM

CN(C)CCCl
inactive: [1] | [2] | [3] | [5] | [6] | [7] | [8] | [10] | [9]

Cc1ccc([N+](=O)[O-])cc1[N+](=O)[O-]
inactive: [11] | [12] | [13] | [14] | [15] | [16] | [17] | [18] | [19] | [20] | [1] | [2] | [3] | [4] | [6] | [7] | [8] | [9]
active: [5] 81.1 µM

COc1ccc([N+](=O)[O-])cc1[N+](=O)[O-]
inactive: [1] | [2] | [3] | [4] | [5] | [6] | [7] | [8] | [10] | [9]

COP(C)(=O)OC
inactive: [1] | [2] | [3] | [4] | [5] | [6] | [7] | [8] | [10] | [9]
